This note sets out measurements from US6177441A, “Treating red blood cell solutions with anti-viral agents” (Cerus Corporation, priority 1998, dated 2001).

This data set deals with red blood cells.

With `O=C(O)CCCc1ccc(N(CCCl)CCCl)cc1` [Chlorambucil, chlorambucil], the “potassium leakage of red cells” value is on record as “did not alter potassium leakage”.
